# Only a part is listed here, and it is no random draw. Some structures show a salt or complex split into parts, the way the source records it. Calls of active or inactive are those of the source.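 How the source made its calls: active means inhibition above the mean of all tested compounds plus 3 SD, set per campaign (cut at about 14% in these data); inactive means the rest.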
# The chains behind the UniProt entries cited, without tags or fusion partners.
# UniProt O75608, whole entry: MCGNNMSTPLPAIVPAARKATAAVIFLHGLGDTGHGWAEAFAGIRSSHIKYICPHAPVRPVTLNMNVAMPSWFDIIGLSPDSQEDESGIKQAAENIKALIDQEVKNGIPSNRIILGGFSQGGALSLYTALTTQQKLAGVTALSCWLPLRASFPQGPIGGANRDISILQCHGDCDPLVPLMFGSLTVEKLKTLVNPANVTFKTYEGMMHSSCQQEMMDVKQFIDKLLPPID
# Target: Acyl-protein thioesterase 1 (Homo sapiens) (UniProt O75608)
# Assay: LYPLA1 inhibitors, primary screen, counter-screen for PME1 inhibitor project, biochemical, fluorescence polarization, FP-Rh probe ABPP (AID 2174);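 further: inhibitors block serine hydrolase probe labeling of LYPLA1 so polarization falls; 0% = enzyme with DMSO and 100% = wells lacking LYPLA1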
# Conditions: recombinant LYPLA1, FP-Rh probe fluorescence polarization; at 5.9 µM; stronger effect = higher value
row,SMILES,inhibition
1,CP(=O)(Nc1ccc2c(c1)OCCO2)Oc1ccccc1 (configuration not stated),inactive: 0.15%
2,Cc1ccccc1NP(C)(=O)Nc1ccccc1C,inactive: -2.2%
3,CP(=O)(Nc1ccc(SC(F)(F)F)cc1)Oc1ccc(F)cc1 (configuration not stated),inactive: -0.67%
4,CCOP(C)(=S)SCC(=O)NC(C)(CC)C(=O)O (configuration not stated),inactive: 3.49%
5,O=[N+]([O-])c1cc([N+](=O)[O-])c(NCC2CCS(=O)(=O)C2)c([N+](=O)[O-])c1 (configuration not stated),inactive: -5.1%
6,COc1ccc(OP(C)(=O)Nc2cccc(Br)c2)cc1 (configuration not stated),inactive: 4.55%
7,COc1ccc(NP(C)(=O)Oc2ccccc2OC)cc1 (configuration not stated),inactive: -1.73%
8,CN(C)CCOC(=O)C(O)(c1ccccc1)C1CCCCC1 (configuration not stated),inactive: -0.3%
9,CCN(CC)CCCOC(=O)C(O)(c1ccccc1)C1CCCCC1 (configuration not stated),inactive: 0.52%
10,CCCCCOc1ccc(NP(C)(=O)Oc2ccc(Cl)cc2Cl)cc1 (configuration not stated),inactive: 0.38%
11,O=[N+]([O-])c1cc([N+](=O)[O-])c(OC2CCCCC2O)c([N+](=O)[O-])c1 (configuration not stated),inactive: 0.56%
12,CP(=O)(Nc1ccccc1)Oc1ccc(F)cc1 (configuration not stated),inactive: 3.04%
13,COc1ccc(OP(C)(=O)Nc2ccc(SC(F)(F)F)cc2)cc1 (configuration not stated),inactive: -3.41%
14,CCOC(=O)c1ccc(NP(C)(=O)Oc2ccc(F)cc2)cc1 (configuration not stated),inactive: 0.79%
15,O=C(OCCN1CCN(CCOCc2ccccc2)CC1)C(O)(c1ccccc1)c1ccccc1,inactive: -0.37%
16,O=C(OC1CN2CCC1CC2)c1ccc([N+](=O)[O-])cc1 (configuration not stated),inactive: 2.64%
17,COc1ccc2c(c1O)-c1c(O)c(OC)cc3c1[C@H](C2)[N+](C)(C)CC3.O=[N+]([O-])c1cc([N+](=O)[O-])c([O-])c([N+](=O)[O-])c1[O-],inactive: 1.2%
18,CC(C)c1ccc(OP(C)(=O)Nc2ccc(SC(F)(F)F)cc2)cc1 (configuration not stated),inactive: -0.23%
19,CP(=O)(Nc1ccccc1F)Oc1ccccc1 (configuration not stated),inactive: 3.9%
20,Cc1c(NP(C)(=O)Oc2ccc(C(C)C)cc2)c(=O)n(-c2ccccc2)n1C (configuration not stated),inactive: -3.47%
21,O=[N+]([O-])c1cc([N+](=O)[O-])c(Nc2ccccn2)c([N+](=O)[O-])c1,inactive: 0.41%

row,SMILES,inhibition
1,CCc1ccc(OP(C)(=O)O)cc1,inactive: 2.85%
2,COc1ccccc1OP(C)(=O)Nc1ccc(C)cc1C (configuration not stated),inactive: -0.36%
3,CP(=O)(Nc1ccccn1)Oc1ccccc1 (configuration not stated),inactive: -1.91%
4,COc1ccccc1OP(C)(=O)Nc1ccc(Br)cc1 (configuration not stated),inactive: 0.2%
5,CN(C)CCOC(=O)C(O)(c1ccccc1)C1CCCC1 (configuration not stated),inactive: 1.26%
6,COc1ccc(OP(C)(=O)Nc2ccccn2)cc1 (configuration not stated),inactive: -1.33%
7,Cc1nc2ccc3ccccc3c2o1.O=[N+]([O-])c1cc([N+](=O)[O-])c(O)c([N+](=O)[O-])c1,inactive: -0.17%
8,CP(=O)(Nc1ccc(Cl)cc1Cl)Oc1ccccc1 (configuration not stated),inactive: -0.26%
9,CP(=O)(OCCOc1ccccc1)OCCOc1ccccc1,inactive: 1.76%
10,Cc1cc(C)cc(OP(C)(=O)Nc2cccc(C(F)(F)F)c2)c1 (configuration not stated),inactive: -3.01%
11,COc1ccc(OP(C)(=O)Nc2ccccc2Br)cc1 (configuration not stated),inactive: -0.65%
12,COc1ccccc1OP(C)(=O)Nc1ccc(C)c(C)c1 (configuration not stated),inactive: 2.32%
13,Nc1ccc2c(ccc3cccnc32)n1.O=[N+]([O-])c1cc([N+](=O)[O-])c(O)c([N+](=O)[O-])c1,inactive: -0.77%
14,CP(=O)(OC12CC3CC(CC(C3)C1)C2)OC12CC3CC(CC(C3)C1)C2,inactive: 2.1%
15,CCOC(=O)c1ccc(NP(C)(=O)Oc2ccc(Cl)cc2)cc1 (configuration not stated),inactive: 2.89%
16,CP(=O)(Nc1ccc(Cl)cc1)Oc1ccc(F)cc1 (configuration not stated),inactive: -3.17%
17,COc1ccccc1OP(C)(=O)Nc1ccccc1Br (configuration not stated),inactive: 0.62%
18,CC(C)(C)c1ccc(OP(C)(=O)O)cc1,inactive: -2.85%
19,CN(C)C(=O)c1c([N+](=O)[O-])cc([N+](=O)[O-])cc1[N+](=O)[O-],inactive: 1.62%
20,COc1ccc(OP(C)(=O)Nc2ccc(Br)cc2)cc1 (configuration not stated),inactive: -0.87%
21,CCN(CC)CC(O)COC(=O)C(O)(c1ccccc1)C1CCCCC1 (configuration not stated),inactive: 0.74%

row,SMILES,inhibition
1,CCc1ccc(OP(C)(=O)Nc2cccnc2)cc1 (configuration not stated),inactive: -1.88%
2,CP(=O)(Oc1ccccc1)N1CCOC1=O (configuration not stated),inactive: 1.67%
3,O=C(OCCCN1CCCC1)C(O)(c1ccccc1)C1CCCCC1 (configuration not stated),inactive: 1%
4,COc1ccccc1OP(C)(=O)Nc1c(C)n(C)n(-c2ccccc2)c1=O (configuration not stated),inactive: -0.69%
5,CCOP(C)(=S)SCC(=O)NC(C)C(=O)O (configuration not stated),inactive: -3.2%
6,O=[N+]([O-])c1cc([N+](=O)[O-])c(O)c([N+](=O)[O-])c1.c1ccc(Oc2ccncc2)cc1,inactive: 4.23%
7,CCOC(=O)c1ccc(NP(C)(=O)Oc2ccc(OC)cc2)cc1 (configuration not stated),inactive: -2.25%
8,CP(=O)(Nc1ccccn1)Oc1ccc(Cl)cc1 (configuration not stated),inactive: 0.47%
9,CP(=O)(Oc1ccccc1)OC(c1ccccc1)C(F)(F)F (configuration not stated),inactive: 0.5%
10,CP(=O)(Nc1ccc(SC(F)(F)F)cc1)Oc1ccc(Cl)cc1 (configuration not stated),inactive: 1.03%
11,Cc1cccc(C)c1OP(C)(=O)Nc1ccc(SC(F)(F)F)cc1 (configuration not stated),inactive: 0.54%
12,Cc1cc(C)cc(OP(C)(=O)Nc2ccc(SC(F)(F)F)cc2)c1 (configuration not stated),inactive: -1.5%
13,CP(=O)(NC(=O)Nc1ccccc1)Oc1ccccc1 (configuration not stated),inactive: 1.93%
14,CCc1ccc(OP(C)(=O)N2CCN(c3ccc([N+](=O)[O-])cc3)CC2)cc1 (configuration not stated),inactive: 6.4%
15,CP(=S)(Nn1cnnc1)Oc1ccccc1 (configuration not stated),inactive: 1.07%
16,COc1ccccc1OP(C)(=O)Nc1ccccc1 (configuration not stated),inactive: 4.16%
17,CP(=O)(Nc1ccccc1Br)Oc1ccccc1 (configuration not stated),inactive: 0.35%
18,CCOC(=O)c1ccc(NP(C)(=O)Oc2ccccc2)cc1 (configuration not stated),inactive: -3.04%
19,Cc1ccc(NP(C)(=O)Oc2ccccc2)c(C)c1 (configuration not stated),inactive: -1.37%
20,COc1ccccc1OP(C)(=O)Nc1ccc(C)cc1 (configuration not stated),inactive: -1.27%
